Test results from US10221138B2, “Biaryl derivatives as GPR120 agonists” (LG CHEM, LTD., priority 2013, dated 2019).

By UniProt entry, the sequences of proteins in these tests, tags left out.
UniProt Q5NUL3, whole entry: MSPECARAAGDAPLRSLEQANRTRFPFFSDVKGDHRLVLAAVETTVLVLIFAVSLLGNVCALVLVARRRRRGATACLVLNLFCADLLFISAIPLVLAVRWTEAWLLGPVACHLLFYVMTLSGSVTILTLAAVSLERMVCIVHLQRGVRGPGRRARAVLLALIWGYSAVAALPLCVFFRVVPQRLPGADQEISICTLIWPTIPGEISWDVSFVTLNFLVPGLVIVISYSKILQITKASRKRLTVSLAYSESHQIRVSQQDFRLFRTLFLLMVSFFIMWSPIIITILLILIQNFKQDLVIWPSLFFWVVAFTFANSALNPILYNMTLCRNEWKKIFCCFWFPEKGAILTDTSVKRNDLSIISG

Target: hGPR120 (Homo sapiens, UniProt Q5NUL3)
Test: Measurement of activity of GPR120 agonist (cell-based calcium fluorescence assay)
Conditions: CHO-K1 cells expressing Ga16 and hGPR120, Calcium 5 dye fluorescence; activity class

EC50: < 200 nM
Compound: CC(CCC(=O)O)Sc1ccc(-c2cccnc2SC2CCCC2)cc1 (stereo not shown)
